High-throughput results as filed in PubChem.
Rows were chosen to be rich in hits. Some 2.1% of all compounds tested hit in one or more screens of this group.
miR-21 reporter: raises the signal of a miR-21 reporter; HeLa miR-21 FLuc reporter, luciferase, 48 h; Potency, µM (top dose mostly 38.3 µM), for inactives: at the highest dose reporter change, positive = more light; AID 2288; 340,000 tested, under 10 active; active = well fitted rising curve with a large enough effect; inconclusive = small, poorly fitted or top-dose-only effect; inactive = no such curve, though single readings can be large or run the other way;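 note: % of control where 0% means no effect; miR-21 action dims this reporter so a rising signal means less miR-21 action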
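Compounds were titrated across several concentrations (up to approximately 40 uM) and incubated 48 hours with HeLa miR-21-FLuc reporter cells (miR-21 target sequence downstream of FLuc, endogenous miR-21). Readout was firefly luciferase luminescence after lytic detection reagent.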
Nrf2 ARE act: activates Nrf2 signaling; Potency, µM (series often up to 46.1 µM), for the others: at the top dose activation, usual class: activators; hit rate 0.31% among 410,000; AREc32 ARE-luciferase reporter (MCF7-derived line), luminescence, 24 h; further: potency means the concentration at half of the fitted maximal effect; % of control where 0% means no effect; nearly all actives have a fitted effect of over 65% in size
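Luminescent ARE reporter assay in AREc32_Fluc cells: overnight plating at 37 deg C, 24 hr compound incubation, Steady-Glo added, 30 min RT before reading.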
TSG101-PTAP inh: blocks PTAP/TSG101 interaction to inhibit HIV-1 budding; Q99816; Fluorescence polarization, FITC-PTAP peptide / Tsg101 binding; Potency, µM (titrated, usually from 115 µM), inactives show at the highest dose activity change, negative = inhibition, usual class: inhibitors; 340,000 tested, under 10 active; AID 493005; active means well fitted inhibition curve with a large enough effect in the main read-out, with a control signal flat, not every such curve was filed as active; inconclusive means small, poorly fitted or top-dose-only effect, or effect the other way, or a change in a side signal; inactive means no such curve, though single readings can be large or run the other way; further: potency means the concentration at half of the fitted maximal effect; % of control where 0% means no effect
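Tsg101 binding domain (10 uM final) was mixed with compound and a FITC-labeled PTAP peptide (50 nM final) in HEPES pH 7.5 buffer with NaCl, Tween 20, EDTA and TCEP; fluorescence polarization was read after 20 min at r.t.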
A549 viability: counter-screen for Nrf2 inhibitors: cytotoxicity in A549 cells; A549 ARE-Fluc cells, CellTiter-Fluor viability, 18-24 h; Potency, µM (series often up to 46 µM), for inactives: at the top dose activity change, negative = cytotoxicity, actives largely listed as inhibitors; hit rate 0.16% among 390,000; AID 504648; further: potency means the concentration at half of the fitted maximal effect; on the % scale 0 is the no-effect control and ±100 the full control effect
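A549 ARE_Fluc cells in 5% FBS OPTI-MEM were exposed to compounds in concentration-response for 18-24 h at 37 deg C. Viability was read by CellTiter-Fluor fluorescence (Ex 405/Em 525) after 30 min, before the luciferase read.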
Glioma ERSR ind: induces the endoplasmic reticulum stress response in human glioma cells; Potency, µM, for the others: at the top dose activation, most hits filed as activators; U87-MG GRP78 promoter luciferase reporter, 16 h; hit rate 0.02% among 420,000; further: potency means the concentration at half of the fitted maximal effect; series mostly up to about 76 µM; % of control where 0% means no effect; nearly all actives have a fitted effect of over 35% in size
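Stably transfected U87-MG glioma cells carrying a GRP78-based luciferase sensor; 16 h compound incubation. Luminescence end-point read 10 min after Bright-Glo addition at room temperature.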
Nrf2 inh: Nrf2 pathway inhibition; A549 ARE-Fluc reporter, luciferase luminescence, 18-24 h; Potency, µM (doses to about 46 µM), without a hit: at the top dose activity change, negative = inhibition, usual class: inhibitors; hit rate 2.1% among 360,000; further: potency means the concentration at half of the fitted maximal effect; on the % scale 0 is the no-effect control and ±100 the full control effect; nearly all actives have a fitted effect of over 60% in size
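Cells were seeded and rested 2 h, then exposed to compounds for 18-24 h. CellTiter-Fluor was read first as a viability measure. BugLite was added 15 min before the final luminescent read of ARE-luciferase activity in A549 cells.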
* = called active by the depositor. Unless noted, the call rests on the fitted dose curve; in most records, active means well fitted curve in the direction sought with a large enough effect; inconclusive means small, poorly fitted or top-dose-only effect, or another doubt; inactive means no such curve, though single readings can be large; an effect the other way counts as inactive or inconclusive.

Screening CO[C@H]1[C@H](NC(=O)c2ccsc2)c2ccccc2C12CCN(Cc1cccc3ncccc13)CC2 returned Glioma ERSR ind -3.9%.
O=C(CN1C(=O)c2ccccc2S1(=O)=O)c1ccc(Cl)cc1Cl was read as Nrf2 ARE act -2.4%, TSG101-PTAP inh -0.2%, A549 viability 5.9%, Glioma ERSR ind -13.5% and Nrf2 inh 11.6µM*.
`O=C(CN1C(=O)c2ccccc2S1(=O)=O)c1ccc(F)cc1` gave miR-21 reporter inconclusive, Nrf2 ARE act -3.4%, TSG101-PTAP inh 0.2%, A549 viability 0.5%, Glioma ERSR ind -15.1% and Nrf2 inh 13µM*.
Screening COc1ccc(O)c(C2Nc3ccccc3C(=O)N2Cc2ccccc2)c1 (configuration not stated) returned A549 viability -13.8% and Nrf2 inh 10.9%.
O=C(CN1C(=O)/C(=C/c2cccc(Cl)c2)SC1=S)NC1C=CS(=O)(=O)C1 (configuration not stated) was read as miR-21 reporter -2.0%, Nrf2 ARE act 14.1µM*, TSG101-PTAP inh -3.3%, A549 viability 1.1%, Glioma ERSR ind 8.0% and Nrf2 inh 10.6%.
For O=C(/C=C/c1ccco1)NCCc1ccc(F)cc1 the results were miR-21 reporter -31.8%, Nrf2 ARE act 14.1µM*, TSG101-PTAP inh -6.5%, A549 viability -11.9%, Glioma ERSR ind 4.5% and Nrf2 inh inconclusive.
Screening CCN(CC)c1ccc(/C=C/C2=C3C=CC=CC3NC=C2)cc1 (configuration not stated) returned Glioma ERSR ind 0.0%.
Screening CCn1c(=O)sc2cc(NS(=O)(=O)c3ccc(F)c(C)c3)ccc21 returned miR-21 reporter 16.4%, Nrf2 ARE act 13.9%, A549 viability -3.0%, Glioma ERSR ind 1.3% and Nrf2 inh 18.4µM*.
Cc1ccc(Cl)cc1NS(=O)(=O)c1ccc(-n2cccn2)cc1 was read as miR-21 reporter 6.9%, Nrf2 ARE act 0.1%, TSG101-PTAP inh 0.4%, A549 viability inconclusive, Glioma ERSR ind -4.6% and Nrf2 inh 6.9%.
Screening Cc1ccc(NS(=O)(=O)c2ccc(-n3cccn3)cc2)cc1F returned miR-21 reporter 9.0%, Nrf2 ARE act -0.2%, TSG101-PTAP inh -1.4%, A549 viability -1.8%, Glioma ERSR ind -1.6% and Nrf2 inh 14.6µM*.
For c1ccc(-c2csc(-c3ccncc3)n2)cc1 the results were miR-21 reporter -46.7%, Nrf2 ARE act 2.6%, TSG101-PTAP inh -3.1%, A549 viability 0.2%, Glioma ERSR ind 0.1% and Nrf2 inh 0.1%.
For Brc1ccsc1-c1csc(-c2ccncc2)n1 the results were miR-21 reporter -51.0%, Nrf2 ARE act 12.6µM*, TSG101-PTAP inh -3.9%, A549 viability -2.1%, Glioma ERSR ind 2.7% and Nrf2 inh 18.6%.

Pulled one by one from above:
Screening COc1ccc(O)c(C2Nc3ccccc3C(=O)N2Cc2ccccc2)c1 (configuration not stated) returned A549 viability -13.8% and Nrf2 inh 10.9%.
For c1ccc(-c2csc(-c3ccncc3)n2)cc1 the results were miR-21 reporter -46.7%, Nrf2 ARE act 2.6%, TSG101-PTAP inh -3.1%, A549 viability 0.2%, Glioma ERSR ind 0.1% and Nrf2 inh 0.1%.
`O=C(CN1C(=O)c2ccccc2S1(=O)=O)c1ccc(F)cc1` gave miR-21 reporter inconclusive, Nrf2 ARE act -3.4%, TSG101-PTAP inh 0.2%, A549 viability 0.5%, Glioma ERSR ind -15.1% and Nrf2 inh 13µM*.
Screening CCn1c(=O)sc2cc(NS(=O)(=O)c3ccc(F)c(C)c3)ccc21 returned miR-21 reporter 16.4%, Nrf2 ARE act 13.9%, A549 viability -3.0%, Glioma ERSR ind 1.3% and Nrf2 inh 18.4µM*.

(list continues)
`CN(C)c1ccc(S(=O)(=O)N2CCC(Cc3ccccc3)CC2)cn1` gave Nrf2 ARE act -0.3%, TSG101-PTAP inh -1.6%, A549 viability -4.1%, Glioma ERSR ind -4.2% and Nrf2 inh 20.6µM*.
Screening CCc1ccc(NC(=O)C(C)OC(=O)c2ccc(NS(=O)(=O)c3ccc(C)c([N+](=O)[O-])c3)cc2)cc1 (configuration not stated) returned miR-21 reporter 10.7%, Nrf2 ARE act 3.2%, TSG101-PTAP inh -1.6%, A549 viability inconclusive, Glioma ERSR ind -1.4% and Nrf2 inh 20.6µM*.
Screening Cc1ccc(S(=O)(=O)Nc2ccc(C(=O)N3CCN(c4ccccc4O)CC3)cc2)cc1[N+](=O)[O-] returned Nrf2 ARE act 2.9%, TSG101-PTAP inh -4.6%, A549 viability -26.5%, Glioma ERSR ind -1.2% and Nrf2 inh 14.6µM*.
`CCCCCCCCCCCCCCCCCC(=O)OCCO` gave Glioma ERSR ind -4.4%.
`O=C(NC(NC(=S)Nc1ccc(F)c([N+](=O)[O-])c1)C(Cl)(Cl)Cl)C(c1ccccc1)c1ccccc1` (configuration not stated) gave Glioma ERSR ind -4.8%.
COc1cc(=O)n2c(c1C(=O)NC(C)c1ccco1)CCN(CC=C(C)C)CC2 (configuration not stated) was read as Glioma ERSR ind -5.8%.
For C[N+]1(CC(=O)c2ccc(Oc3ccccc3)cc2)CCOCC1 the results were Glioma ERSR ind -1.6%.
Screening COc1ccc(C(C#N)=C2C=C(Cl)C(=NO)C=C2Cl)cc1 returned Nrf2 ARE act 11.2µM* and Glioma ERSR ind 0.2%.
`COc1ccc(O)c(CN2CCC3(CCC(CNC(=O)C4CCCO4)O3)CC2)c1` (configuration not stated) gave Glioma ERSR ind -5.9%.
`Cc1nn(CCc2nn[nH]n2)c2nc(-c3ccc(Br)cc3)cc(C(F)(F)F)c12` gave miR-21 reporter -8.1%, Nrf2 ARE act -0.3%, TSG101-PTAP inh -3.2%, A549 viability inconclusive, Glioma ERSR ind -8.5% and Nrf2 inh 20.6µM*.
CS(=O)(=O)Nc1cccc(-c2cc(F)c(S(=O)(=O)N3CCN(S(=O)(=O)c4ccc5c(c4)OCCO5)CC3)cc2F)c1 was read as A549 viability -0.2% and Nrf2 inh -21.8%.
O=C(COC(=O)/C=C/c1ccccc1[N+](=O)[O-])NCc1ccco1 was read as Nrf2 ARE act 14.1µM*, TSG101-PTAP inh -0.5%, A549 viability 6.0%, Glioma ERSR ind 0.5% and Nrf2 inh 3.1%.
`Cc1ccc(CN2CCOCCS2(=O)=O)cc1` gave Glioma ERSR ind -0.9%.
`CCOC(=O)c1cnc(-c2ccccc2)nc1Oc1ccccc1` gave miR-21 reporter -6.8%, Nrf2 ARE act 12.6µM*, TSG101-PTAP inh 0.7%, A549 viability -1.0% and Glioma ERSR ind -4.0%.
CCOC(=O)c1cnc(-c2ccccc2)nc1Oc1ccc(OC)cc1 was read as miR-21 reporter -0.1%, Nrf2 ARE act 0.1%, TSG101-PTAP inh -5.7%, A549 viability 1.9%, Glioma ERSR ind -3.2% and Nrf2 inh 4.0%.
Screening CCOC(=O)c1cnc(-c2ccccc2)nc1-c1ccccc1 returned miR-21 reporter -4.8%, Nrf2 ARE act 7.94µM*, TSG101-PTAP inh -0.2%, A549 viability 2.5%, Glioma ERSR ind 1.8% and Nrf2 inh inconclusive.
Screening O=C(NCC1Cc2cccc(-c3cncnc3)c2O1)C1CC1 (configuration not stated) returned Glioma ERSR ind -2.6%.
`Cc1c(P(=S)(c2ccccc2)c2ccccc2)c2ccccc2n1C(=O)NCc1ccccc1` gave A549 viability -2.0% and Nrf2 inh -14.4%.
